Measurements published in PubChem BioAssay AID602149 (Vanderbilt Specialized Chemistry Center, 2011).

The chains behind the UniProt entries cited, without tags or fusion partners. Where a name states a change or a piece, a line headed by the entry shows the natural chain unless it says otherwise.
UniProt O14939: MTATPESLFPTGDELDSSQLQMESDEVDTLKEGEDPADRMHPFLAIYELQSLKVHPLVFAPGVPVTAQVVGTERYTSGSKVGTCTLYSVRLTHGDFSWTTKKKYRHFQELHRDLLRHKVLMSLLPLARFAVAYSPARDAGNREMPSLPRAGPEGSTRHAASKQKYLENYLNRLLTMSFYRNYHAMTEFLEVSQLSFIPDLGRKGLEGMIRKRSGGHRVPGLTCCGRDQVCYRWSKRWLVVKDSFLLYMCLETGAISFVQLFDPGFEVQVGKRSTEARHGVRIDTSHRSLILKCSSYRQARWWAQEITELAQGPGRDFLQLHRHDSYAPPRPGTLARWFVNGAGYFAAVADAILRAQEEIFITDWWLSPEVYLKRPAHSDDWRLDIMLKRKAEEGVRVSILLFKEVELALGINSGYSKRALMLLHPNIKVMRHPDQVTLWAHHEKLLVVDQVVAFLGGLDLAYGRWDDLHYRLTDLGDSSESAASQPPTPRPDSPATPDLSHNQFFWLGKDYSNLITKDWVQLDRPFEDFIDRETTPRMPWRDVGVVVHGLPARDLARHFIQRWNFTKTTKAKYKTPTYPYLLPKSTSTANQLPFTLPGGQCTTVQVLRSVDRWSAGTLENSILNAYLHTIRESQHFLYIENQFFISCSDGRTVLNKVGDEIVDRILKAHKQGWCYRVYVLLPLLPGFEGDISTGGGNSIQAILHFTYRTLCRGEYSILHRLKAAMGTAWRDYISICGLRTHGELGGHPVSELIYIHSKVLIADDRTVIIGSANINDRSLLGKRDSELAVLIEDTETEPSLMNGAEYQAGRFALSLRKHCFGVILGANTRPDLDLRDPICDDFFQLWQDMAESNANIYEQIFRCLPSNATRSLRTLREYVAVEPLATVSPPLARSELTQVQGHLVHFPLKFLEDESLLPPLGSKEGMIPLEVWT

Target: Phospholipase D2 (Homo sapiens) + Phospholipase D2 (Homo sapiens) (UniProt O14939+O14939)
Assay: PubChem AID 602149
Details: purified human PLD2 enzyme activity assay

C[C@@H](CN1CCC2(CC1)C(=O)NCN2c1ccccc1)NC(=O)c1ccc2ccccc2c1
IC50: 235 nM
